Data on 1 compound can be found in article PMC7321169, “N-Alkylaminoferrocene-Based Prodrugs Targeting Mitochondria of Cancer Cells” (Molecules, 2020).

The subject of one data set is A2780 cells. As to the kind of experiment: Viability of adherent A2780 cells (MTT). It counts as cell-based, human. As to the method: (§1) Adherent A2780, DU-145 and NHDF cells were grown as mentioned before. Then, the cells were resuspended in the RPMI 1640 (DMEM for HDFa cell line) medium containing 5% FBS (for 24- and 48 h assays) or 10% FBS (for 96 h assays) 1% L-glutamine, and 1% penicillin/streptomycin. This suspension was spread in the wells of a 96-well microtiter plate. Every well in the plates contained 25,000 cells (exceptions: 12,500 cells for the 96h-assay and 10,000 cells for experiments with HDFa cell line) per well per 100 μL and was left at 37 °C in the chamber filled with CO2 (5%) overnight. Stock solutions of prodrugs of different concentrations (1 μL, solvent DMSO) were added to the wells and incubated for 24–96 h. Four experiments were conducted for each concentration of the prodrug. Finally, 3-(4,5-dimethylthiazol-2-yl)-2,5-diphenyltetrazolium bromide (MTT; 20 μL of the solution prepared by dissolving MTT (5 mg) in PBS buffer (1 mL)) was added to each well, incubated for 3 h, treated with sodium dodecyl sulfate (SDS) solution (90 μL, 10% solution in 0.01 M aqueous HCl), and incubated overnight. Then the intensity of absorbance at 590 nm was measured (MTT is converted to blue dye (λmax = 590 nm) in live cells). The absorbance at 690 nm was taken as a baseline value.

For data set [1], the system named is BL-2 cells. As to the kind of experiment: ROS-amplification in BL-2 cells (CM-DCFH-DA, flow cytometry). The settings on record: 2 h, 37 °C, CM-DCFH-DA probe. Format: cell-based. Here is the method: The cells were centrifuged (5 min; 1000 rpm), washed with DPBS (2 × 10 mL) and the suspension at cell density of 10^6 cells/mL in DPBS was prepared. 5(6-)chloromethyl-2′,7′-dichlorodihydrofluorescein diacetate (CM-DCFH-DA) in DMSO (8.7 µL, stock solution 10 mM) was added into 8.7 mL of cell solution to have 10 µM final concentration. The cells were incubated in the dark chamber supplemented by 5% CO2 at 37 °C for 15 min. Then, the cells were centrifuged, washed with DPBS (1× 10 mL) and resuspended in opti-MEM medium by maintaining the cell concentration at 10^6 cells/mL. The cell suspension was split into portions as 200 µL in each. […] After 120 min of incubation in the dark chamber filled with 5% CO2 at 37 °C, the mean fluorescence of live cells (λex = 488 nm, λem = 530 nm) in the suspensions was determined by using the flow cytometer. All samples were applied in triplicates within the assay and the results were calculated based on three independent assays. Prodrug 7 contributes to the fluorescence signal derived from CM-DCFH-DA (λex = 488 nm, λem = 530 nm). This background signal was quantified by doing the same experiment as described above, but in the absence of CM-DCFH-DA (Figure 3B). Then we subtracted this background signal from that obtained in the presence of CM-DCFH-DA to obtain the corrected ROS-mediated fluorescence increase of CM-DCFH-DA probe (Figure 3C).
(In general: Flow cytometry measures light scatter and fluorescence of single cells or particles in a stream.)

The test system of the next data set is DU-145 cells. Put plainly: Viability of adherent DU-145 cells (MTT). Format: cell-based, human. Here is the method:
as §1

The nature of data set [2]: Solubility of prodrugs in aqueous buffers (absorbance at 790 nm). The conditions noted are these: RPMI medium containing 20% FBS and DMSO (1%, v/v). Format: physicochemical. Here is the method:
Prodrugs 5, 7 and 9 (known control) were dissolved in DMSO at concentrations of 15, 10, 5, 2, 1.5, 1, and 0.2 mM. These solutions (10 μL) were transferred to quartz cuvettes containing 990 μL of either Dulbecco's phosphate-buffered saline (DPBS) or Roswell Park Memorial Institute (RPMI) medium containing 20% of fetal bovine serum (FBS) to obtain solutions (or suspensions) with final concentrations of prodrugs-150, 100, 50, 20, 15, 10, and 2 μM. The absorbance at 790 nm of the resulting solutions/suspensions was measured and plotted as a function of the concentration of prodrugs. Mixtures absorbing <0.04 ([…] nm) for FBS and 0.034 ([…] nm) for DPBS appeared transparent and were considered as true solutions.

Data set [3] concerns Jurkat cells. As to the kind of experiment: Cell cycle of Jurkat cells. The settings on record: 48 h, concentrations causing no cell death. Format: cell-based, human.
Data set [4] deals with BL-2 cells. Put plainly: Viability of suspension BL-2 cells (MTT). It counts as cell-based. As to the method:
The suspension of BL-2 cells in the RPMI 1640 medium containing 5% FBS (for 24- and 48 h assays) or 10% FBS (for 96 h assays) 1% L-glutamine, and 1% penicillin/streptomycin was spread in the wells of a 96-well microtiter plate. Every plate contained 50,000 cells (with the exception of the 96h-experiment, for which 25,000 cells were used) per well per 100 μL. Stock solutions of prodrugs of different concentrations (1 μL, solvent DMSO) were added to the wells and incubated for 24–96 h. Four experiments were conducted for each concentration of the prodrug. Finally, 3-(4,5-dimethylthiazol-2-yl)-2,5-diphenyltetrazolium bromide (MTT; 20 μL of the solution prepared by dissolving MTT (5 mg) in PBS buffer (1 mL)) was added to each well, incubated for 3 h, treated with sodium dodecyl sulfate (SDS) solution (90 μL, 10% solution in 0.01 M aqueous HCl), and incubated overnight. Then the intensity of absorbance at 590 nm was measured (MTT is converted to blue dye (λmax = 590 nm) in live cells). The absorbance at 690 nm was taken as a baseline value.

Data set [5] relates to Jurkat cells. Put plainly: Viability and cell death of Jurkat cells (Annexin A5-FITC/PI flow cytometry). It counts as cell-based, human. Here is the method:
Jurkat cells were counted in MUSE Cell Analyzer using MUSE® Count &Viability Assay Kit (Merck-Millipore, Billerica, MA, USA) and adjusted to a density of 1.0 × 10^5/mL in RPMI 1640 medium (with 10% FCS and 1% glutamine). A total of 9000 cells per well per 90 μL were seeded into 96 well culture plates. The 50 mM prodrug stock solutions were diluted to 300, 100, 30, and 10 μM in cell culture medium and 10 μL of the dilutions was pipetted to the cells, receiving final test concentrations of 30, 10, 3, and 1 μM. Every concentration was tested in triplicates. Cells with corresponding amounts of DMSO served as negative controls. […] was incubated with 200 μL of freshly prepared staining solution, consisting of 1 μl Annexin A5-Fitc, 0.4 μL 1,1′,3,3,3′,3′-hexamethylindodicarbocyanine iodide (DiIC1(5)) (both from Thermo Fisher Scientific, Waltham, MA, USA), 66.6 ng propidiumiodide (PI) and 33 μM monobromobimane (MBB, both from Sigma-Aldrich, Taufkirchen, Germany) per 1 mL Ringer’s solution (Fresenius Kabi AG, Bad Homburg, Germany). Cells were incubated for 20 min at 4 °C and then analyzed in Gallios cytofluorometer™ (Beckman Coulter, Fullerton, CA, USA). Fitc and propidium iodide were excited at 488 nm; Fitc fluorescence was recorded on the FL1 sensor (525/38 nm band pass, BP) and propidium iodide fluorescence was detected on FL3 sensor (620/30 nm BP), DiIC1(5) fluorescence was excited at 638 nm and detected on FL6 sensor at 675/20 nm. Monobromobimane fluorescence was excited at 405 nm and detected on FL9 sensor at 430/40 nm. To eliminate any fluorescence bleed-through, electronic compensation was used. Data were analyzed employing Kaluza™ software Version 1.2 (Beckman Coulter, Fullerton, CA, USA) and processed in Microsoft Excel. […] IC50 values were determined by fitting the % values of Ax-PI- cells versus drug concentration with a sigmoidal curve using GraphPad Prism software. Reduced glutathione (an intracellular thiol) can be detected by monobromobimane, a dye that becomes fluorescent after non-enzymatic binding to thiols. […]

The test system of data set [6] is Jurkat cells. Put plainly: Mitochondrial membrane potential of Jurkat cells (DiIC1(5)). It counts as cell-based, human. The settings on record: 48 h; 5 at nontoxic concentrations ≤ 10 μM; 12 at all tested concentrations. Here is the method: (§2) Jurkat cells were counted in MUSE Cell Analyzer using MUSE® Count &Viability Assay Kit (Merck-Millipore, Billerica, MA, USA) and adjusted to a density of 1.0 × 10^5/mL in RPMI 1640 medium (with 10% FCS and 1% glutamine). A total of 9000 cells per well per 90 μL were seeded into 96 well culture plates. The 50 mM prodrug stock solutions were diluted to 300, 100, 30, and 10 μM in cell culture medium and 10 μL of the dilutions was pipetted to the cells, receiving final test concentrations of 30, 10, 3, and 1 μM. Every concentration was tested in triplicates. Cells with corresponding amounts of DMSO served as negative controls. […] Cells were incubated for 20 min at 4 °C and then analyzed in Gallios cytofluorometer™ (Beckman Coulter, Fullerton, CA, USA). Fitc and propidium iodide were excited at 488 nm; Fitc fluorescence was recorded on the FL1 sensor (525/38 nm band pass, BP) and propidium iodide fluorescence was detected on FL3 sensor (620/30 nm BP), DiIC1(5) fluorescence was excited at 638 nm and detected on FL6 sensor at 675/20 nm. Monobromobimane fluorescence was excited at 405 nm and detected on FL9 sensor at 430/40 nm. To eliminate any fluorescence bleed-through, electronic compensation was used. Data were analyzed employing Kaluza™ software Version 1.2 (Beckman Coulter, Fullerton, CA, USA) and processed in Microsoft Excel. […]

Data set [7] relates to Jurkat cells. As to the kind of experiment: Intracellular glutathione content of viable Jurkat cells (monobromobimane). It counts as cell-based, human. The settings on record: 48 h, concentrations causing no cell death. Here is the method:
as §2

Data set [8] is described as follows: Generation of ROS in cell free settings (2′,7′-dichlorofluorescin oxidation in the presence of H2O2). The conditions noted are these: compound 49.5 μM, DCFH 10 μM, H2O2 10 mM, GSH 5 mM, EDTA 10 mM, MOPS buffer, 37 °C. Here is the method: 2′,7′-Dichlorofluorescin diacetate (DCFH-DA, 4.9 mg) was dissolved in 100 µL DMF and mixed with 0.1 M NaOH (900 µL). This mixture was incubated on a shaker for 30 min at 25 °C in the dark to obtain 10 mM 2′,7′-dichlorofluorescin (DCFH) stock solution. Next, 3-(N-morpholino)propanesulfonic acid buffer (MOPS buffer 100 mM, pH: 7.4) containing N,N,N’,N’-ethylenediaminetetraacetic acid (EDTA, 10 mM), glutathione (GSH, 5 mM) and H2O2 (10 mM) was prepared. Finally, DCFH was diluted in this buffer to 10 µM as the final concentration. Monitoring of the fluorescence was started (λex: 501 nm, λem: 525 nm). After 5 min, the compound was added to have a final concentration of 50 µM. DMF and FeSO4 in DMF were used as controls. The measurement was conducted for 300 min (Table S2, Figure 1A).

Another data set concerns HDFa cells. As to the kind of experiment: Viability of adherent HDFa cells (MTT). Format: cell-based, human. The settings on record: 48 h incubation; normal cells. Here is the method:
as §1

For orientation: IC50 means the concentration at which inhibition is half-maximal. Higher therefore signals lower potency. With `CC1(C)OB(c2ccc(COC(=O)N(Cc3cn(CCCC[P+](c4ccccc4)(c4ccccc4)c4ccccc4)nn3)[c-]3cccc3)cc2)OC1(C)C.[Fe+2].[I-].c1cc[cH-]c1` [prodrug 5], the IC50 worked out at 10 ± 3 µM in the data set with A2780 cells (24 h incubation); 5 ± 2 µM in the data set with A2780 cells (48 h incubation); 5 ± 2 µM in the data set on A2780 cells (96 h incubation); 20 ± 3 µM in the data set with DU-145 cells (24 h incubation); 10 ± 2 µM in the data set on DU-145 cells (48 h incubation); 10 ± 2 µM in the data set on DU-145 cells (96 h incubation). Moreover, the IC50 turned out to be 5 ± 1 µM with BL-2 cells [4] (24 h incubation); 5 ± 1 µM in the data set with BL-2 cells [4] (48 h incubation); 8 ± 1 µM with BL-2 cells [4] (96 h incubation); 20 ± 3 µM in the data set with Jurkat cells [5] (24 h incubation); 20 ± 2 µM in the data set on Jurkat cells [5] (48 h incubation); 18 ± 5 µM in the data set on HDFa cells. Besides, in the data set on BL-2 cells [1], the “ROS amplification in BL-2 cells (in words)” value is on record as “weaker ROS amplifier in BL-2 cells than non-targeted NAAF-prodrug 9”. For the same compound, the “Solubility in FBS” value in [2] is on record as 130 + 17 μM. In addition, the “Effect on cell cycle” value with Jurkat cells [3] is recorded as “does not affect”. In addition, the “Mechanism of cell death of Jurkat cells” value in the data set with Jurkat cells [5] (48 h, Ax/PI staining) is on record as “mostly via necrosis”. The “Effect on mitochondrial potential of Jurkat cells” value in the data set on Jurkat cells [6] was “significant increase of the mitochondrial potential”. For the same compound, the “Effect on intracellular concentration of glutathione” value with Jurkat cells [7] was “does not affect”. The “Initial rate (dF/dt)0 of DCFH oxidation in the presence of H2O2” value in data set [8] was determined as 7.7 a.u. × min^−1.
